The text below walks through data of US20200179497A1.

The target in this experiment is denosumab (XGEVA). Kind of experiment: cell-based or functional assay.

As to “BX1001865 (IdeS lacking tag, produced to GMP standard) (enzyme)”, the Conc. of enzyme, 1st IgG2 (XGEVA) heavy chain, IgG to scIgG (gel) worked out at 14 ng/mL; the Conc. of enzyme, 1st IgG heavy chain, IgG to scIgG (gel) was found to be 14 ng/mL; the Conc. of enzyme, 2nd IgG2 (XGEVA) heavy chain, scIgG to F(ab')2 (gel) stood at 1100 ng/mL.
In the case of “pCART124 (IdeS with additional N terminal methionine and histidine tag) (enzyme)”, the Conc. of enzyme, 2nd IgG2 (XGEVA) heavy chain, scIgG to F(ab')2 (gel) worked out at 1100 ng/mL and the EC50 in cleavage of IgG2 (XGEVA), potency ELISA is 0.225 µg/mL.
